Patent US20210032345A1, “ANTI-PD-L1 ANTIBODIES, COMPOSITIONS AND ARTICLES OF MANUFACTURE” (Genentech, Inc., priority 2008, published 2021)

System: rhesus PD-L1
Assay: FACS binding to PMA/ionomycin-cultured rhesus mononuclear cells (CD4+ T cells)
Settings: half-maximal binding
Protocol: Rhesus blood was obtained from Southwest Foundation for Biomedical Research (San Antonio, Tex.). Blood was diluted with an equal volume of PBS and overlayed on 96% Ficoll-Paque (GE Healthcare) for separation of mononuclear cells. Mononuclear cells were lysed of red blood cells using erythrocyte lysis buffer (Qiagen) and cultured overnight at 1.5×10^6 cells/ml with 5 ng/ml PMA plus 1 μM ionomycin in 6-well plates. Culture media was RPMI 1640 with 10% fetal bovine serum, 20 μM HEPES, and 1:100 dilutions of the following supplements from Gibco: Gluta-MAX, sodium pyruvate, penicillin/streptomycin, and non-essential amino acids. Cells were harvested the following day and aliquoted to a 96-well plate for binding studies (approximately 120,000 cells per well).
The PD-L1 antibody YW243.55.570 or Herceptin® antibody control were titrated starting at 10 μg/ml, in three-fold serial dilutions and bound to cells in 50 μl volumes for 25 minutes on ice. Cells were washed and then bound with anti-human IgG PE (Caltag) at 20 μg/ml for 25 minutes on ice. […]
All samples were run on a […] FACSCalibur and Mean Fluorescence Intensity of PD-L1 binding data as a function of anti-PD-L1 antibody concentration was analyzed using Tree Star, Inc. FlowJo® software; EC50, values (Ab concentration associated with half-maximal binding) were calculated using Kaleidagraph. […]

YW243.55.S70: affinity-matured phage anti-PD-L1 antibody derived from YW243.55, selected as the primary candidate; full length IgG1
EC50: 0.3 nM
